Measured values: article PMC5522078, “Discovery and characterization of small molecules targeting the DNA-binding ETS domain of ERG in prostate cancer” (Oncotarget, 2017)

By UniProt entry, the sequences of proteins in these tests, tags left out.
UniProt P11308, whole entry: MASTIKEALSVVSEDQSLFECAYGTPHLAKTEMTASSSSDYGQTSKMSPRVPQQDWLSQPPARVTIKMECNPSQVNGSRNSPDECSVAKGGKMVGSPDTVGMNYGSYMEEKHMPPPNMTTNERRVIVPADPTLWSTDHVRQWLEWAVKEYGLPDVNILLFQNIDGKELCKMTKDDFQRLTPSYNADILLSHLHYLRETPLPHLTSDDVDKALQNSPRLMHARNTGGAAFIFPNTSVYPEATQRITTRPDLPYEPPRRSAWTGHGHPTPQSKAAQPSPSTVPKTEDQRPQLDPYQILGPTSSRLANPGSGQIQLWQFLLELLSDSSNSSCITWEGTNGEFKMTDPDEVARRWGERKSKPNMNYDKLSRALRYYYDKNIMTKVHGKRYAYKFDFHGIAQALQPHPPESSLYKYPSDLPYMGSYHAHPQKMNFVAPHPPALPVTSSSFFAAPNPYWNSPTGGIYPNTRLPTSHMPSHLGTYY

Target: ERG (Homo sapiens, UniProt P11308)
Assay: Dual reporter luciferase assay (pETS-luc) in PNT1B-ERG cells
Conditions: read-out: IC50 in luciferase assay (pETS-luc reporter activity), PNT1B-ERG cells, 0.1-100 μM, 48 h treatment
Experimental: All of the compounds selected from the virtual screening were tested in a luciferase-based ERG-responsive reporter assay, using two ERG-overexpressing cell lines, VCaP and PNT1B-ERG, previously developed in house. […] Data were normalized first to Renilla luciferase and then to the DMSO-media control on each plate, unless otherwise stated. Initial hit compounds were identified as those with an average normalized luciferase reading (firefly luciferase/Renilla luciferase readings) that is 60% or less of the average normalized luciferase reading of the DMSO-media control (i.e. 40% or more reduction of luciferase activity) at 10 μM. Representative example of raw Renilla luciferase readings presented in Supplementary Figure 9B. The luciferase assays were repeated for each lead compound under multiple concentrations (0.1 to 100 μM) to establish a dose-dependent response and an IC50 value. AR reporter assay was performed as previously described.

Structure (SMILES): CC(C)(C)c1ccc(C=NN=C2NC(=O)C(CC(=O)O)S2)cc1 (stereo not drawn)
- IC50: 2000 nM

Structure (SMILES): O=C(O)CC1SC(=NN=Cc2ccc(C3CCC3)cc2)NC1=O (stereo not drawn)
- IC50: 1000 nM

Structure (SMILES): Cc1cc(C(C)(C)C)ccc1C=NN=C1NC(=O)C(CC(=O)O)S1 (stereo not drawn)
- IC50: 2000 nM

Structure (SMILES): CC(C)(C)c1ccc(C=NN=C2NC(=O)C(CC(=O)O)S2)c(F)c1 (stereo not drawn)
- IC50: 8000 nM

Structure (SMILES): CC(C)(C)c1ccc(C=NN=C2NC(=O)C(CC(=O)O)S2)c(Cl)c1 (stereo not drawn)
- IC50: 1000 nM

Structure (SMILES): Cc1cc(C=NN=C2NC(=O)C(CC(=O)O)S2)ccc1C(C)(C)C (stereo not drawn)
- IC50: 4000 nM

Structure (SMILES): CC(C)(C)c1ccc(C=NN=C2NC(=O)C(CC(=O)O)S2)cc1F (stereo not drawn)
- IC50: 4000 nM

Structure (SMILES): CC(C)(C)c1ccc(C=NN=C2NC(=O)C(CC(=O)O)S2)cc1Cl (stereo not drawn)
- IC50: 8000 nM

Structure (SMILES): CC(C)(C)c1ccc(C=NN=C2NC(=O)C(CC(=O)O)S2)c(O)c1 (stereo not drawn)
- IC50: 3000 nM
